Reference: PubChem BioAssay AID2247 (Johns Hopkins Ion Channel Center, 2010)
The list shows a part of the results, in another mix than the full data. The source made the active and inactive calls.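 The calls were made as follows: active = B-score over 3 SD under the library average, no early fluorescence shift, positive overall ratio signal; inactive = the rest.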

Sequences of proteins named here, by UniProt entry; tags and fusion partners are left off.
UniProt Q9QUQ5, whole entry: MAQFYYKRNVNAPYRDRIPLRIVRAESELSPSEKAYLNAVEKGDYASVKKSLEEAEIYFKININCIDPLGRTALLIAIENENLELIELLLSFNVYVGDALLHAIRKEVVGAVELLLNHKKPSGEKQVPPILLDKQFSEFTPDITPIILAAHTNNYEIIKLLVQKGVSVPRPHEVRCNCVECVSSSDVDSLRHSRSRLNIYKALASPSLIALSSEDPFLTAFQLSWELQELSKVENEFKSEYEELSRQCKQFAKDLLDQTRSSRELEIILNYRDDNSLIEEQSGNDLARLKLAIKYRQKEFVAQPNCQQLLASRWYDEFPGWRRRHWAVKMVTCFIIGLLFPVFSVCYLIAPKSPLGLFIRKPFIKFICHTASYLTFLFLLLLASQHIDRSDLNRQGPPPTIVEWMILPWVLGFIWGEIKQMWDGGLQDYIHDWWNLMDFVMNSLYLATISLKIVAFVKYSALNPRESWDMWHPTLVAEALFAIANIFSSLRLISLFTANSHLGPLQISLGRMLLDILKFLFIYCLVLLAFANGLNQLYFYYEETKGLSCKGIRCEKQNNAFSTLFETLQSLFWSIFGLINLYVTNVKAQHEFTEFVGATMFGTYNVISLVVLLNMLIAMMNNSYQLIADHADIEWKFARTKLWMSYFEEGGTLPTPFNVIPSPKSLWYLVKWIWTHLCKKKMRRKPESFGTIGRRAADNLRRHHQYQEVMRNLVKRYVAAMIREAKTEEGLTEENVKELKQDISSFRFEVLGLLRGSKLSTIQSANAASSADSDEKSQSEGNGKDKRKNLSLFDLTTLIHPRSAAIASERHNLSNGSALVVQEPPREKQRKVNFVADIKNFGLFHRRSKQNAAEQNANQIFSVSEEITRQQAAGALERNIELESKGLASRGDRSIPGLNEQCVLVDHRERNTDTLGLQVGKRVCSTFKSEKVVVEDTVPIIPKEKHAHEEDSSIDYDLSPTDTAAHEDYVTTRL

These compounds were tested against Short transient receptor potential channel 4 (Mus musculus) (UniProt Q9QUQ5) (assay: inhibitors of mouse TRPC4 channel, primary screen, Fluo4 calcium, HEK293 TRPC4beta/mu-opioid cells (AID 2247)). Conditions: DAMGO-evoked Fluo4 calcium flux, at 10 µM; active compounds read low.

Q: For `CCOC(=O)N1CCC(Nc2cccc(C)c2)CC1`, which outcome is on record?
A: inactive

Q: Which B-score does the source give for `COc1cc(C(=O)NCC2(N(C)C)CCCCC2)ccc1OC(F)F` here?
A: active: -5

Q: How did the outcome turn out when `Cc1ccc(OCC(C)C)c(CN(CCCl)CCCl)c1` was run?
A: inactive

Q: With `O=C(NCC1(N2CCCCC2)CCCCC1)c1ccc(F)cc1` as the compound, how does the outcome read?
A: inactive

Q: `COc1ccc(NC2CCN(CCc3ccccc3)CC2)c(OC)c1` was tested. Which outcome did it give?
A: inactive

Q: Which outcome does the source give for `CCOC(=O)N1CCC(Nc2ccc(F)cc2)CC1` here?
A: inactive

Q: `CCOc1ccc(C)cc1CN(CCCl)CCCl` was tested. Which outcome did it give?
A: inactive

Q: With `N#CC1(Nc2ccccc2)CCN(Cc2ccccc2)CC1` as the compound, how does the outcome read?
A: inactive

Q: `O=C(OC1CN2CCC1CC2)C1c2ccccc2Oc2ccccc21` (centres undefined) was tested. Which outcome did it give?
A: inactive

Q: How did the outcome turn out when `CCOC(=O)N1CCC(Nc2ccc(OC)cc2)CC1` was run?
A: inactive

Q: With `O=C(NCC1(N2CCCCC2)CCCCC1)c1ccc(Cl)nc1` as the compound, how does the outcome read?
A: inactive

Q: For `Cc1cc(C)cc(N(C(=O)c2ccccc2)C2CCN(C(=O)OC(C)(C)C)CC2)c1`, which outcome is on record?
A: inactive

Q: How did the outcome turn out when `O=C(NCC1(N2CCOCC2)CCCCC1)c1cc2ccccc2o1` was run?
A: inactive

Q: For `CSc1ccccc1C(=O)NCC1(N2CCCCC2)CCCCC1`, which outcome is on record?
A: inactive

Q: How did the outcome turn out when `COc1ccc(C(=O)NCC2(N3CCCCC3)CCCCC2)cc1` was run?
A: inactive

Q: How did the outcome turn out when `CC(C)(C)OC(=O)N1CCC(N(C(=O)c2ccccc2)c2ccc(F)cc2)CC1` was run?
A: inactive

Q: For `COc1ccc(C(=O)NCC2(N3CCCCC3)CCCCC2)c(OC)c1OC`, which outcome is on record?
A: inactive

Q: With `O=C(NCC1(N2CCCCC2)CCCCC1)c1ccc(=O)[nH]c1` as the compound, how does the outcome read?
A: inactive

Q: For `O=C(NCC1(N2CCCCC2)CCCCC1)c1cccs1`, which outcome is on record?
A: inactive

Q: For `CCCOc1ccc(C(=O)NCC2(N(C)C)CCCCC2)cc1OC`, which outcome is on record?
A: inactive

Q: How did the outcome turn out when `CN1CCC(Nc2cccc(F)c2)CC1` was run?
A: inactive

Q: With `COc1cc(OC)c(C(=O)NCC2(N(C)C)CCCCC2)cc1OC` as the compound, how does the outcome read?
A: inactive

Q: How did the outcome turn out when `CC(C)c1ccc(NC2CCN(C(=O)OC(C)(C)C)CC2)cc1` was run?
A: inactive

Q: `COc1ccc(CN(CCCl)CCCl)cc1Cl` was tested. Which outcome did it give?
A: inactive

Q: With `CN(C)c1cccc(C(=O)NCC2(N3CCCCC3)CCCCC2)c1` as the compound, how does the outcome read?
A: inactive

Q: With `COc1cc(C(=O)NCC2(N3CCCCC3)CCCCC2)ccc1OC(F)F` as the compound, how does the outcome read?
A: inactive

Q: For `O=C(NCC1(N2CCOCC2)CCCCC1)c1cc(=O)[nH]c2ccccc12`, which outcome is on record?
A: inactive

Q: Which outcome does the source give for `CN1CCN(CCOC(=O)C(O)(c2ccccc2)c2ccccc2)CC1` here?
A: inactive

Q: Which outcome does the source give for `COc1ccc(NC2CCN(C(=O)OC(C)(C)C)CC2)cc1` here?
A: inactive

Q: `O=C(NCC1(N2CCCCC2)CCCCC1)c1cccc(C(F)(F)F)c1` was tested. Which outcome did it give?
A: inactive

Q: For `CCN1CCC(Nc2ccc(Cl)cc2)CC1`, which outcome is on record?
A: inactive

Q: `N#CC1(Nc2ccccc2)CCN(CCc2ccccc2)CC1` was tested. Which outcome did it give?
A: inactive

Q: For `O=C(NCC1(N2CCCCC2)CCCCC1)c1cccc([N+](=O)[O-])c1`, which outcome is on record?
A: inactive

Q: For `O=C(NCC1(N2CCCCC2)CCCCC1)c1ccc(OC(F)F)cc1`, which outcome is on record?
A: inactive

Q: `CN(C)C1(CNC(=O)c2cccc(C#N)c2)CCCCC1` was tested. Which outcome did it give?
A: inactive

Q: `c1ccc(CN2CCC(Nc3ccccc3)CC2)cc1` was tested. Which outcome did it give?
A: inactive

Q: Which outcome does the source give for `CCCN1CCC(Nc2cc(OC)cc(OC)c2)CC1` here?
A: inactive

Q: With `N#Cc1ccc(C(=O)NCC2(N3CCCCC3)CCCCC2)cc1` as the compound, how does the outcome read?
A: inactive

Q: Which outcome does the source give for `CC(C)(C)OC(=O)N1CCC(N(C(=O)c2ccccc2)c2ccc(Cl)cc2)CC1` here?
A: inactive

Q: How did the outcome turn out when `CCc1cc(C(=O)NCC2(N3CCCCC3)CCCCC2)sc1C` was run?
A: inactive

Q: Which outcome does the source give for `O=C(OC1CN2CCC1CC2)C1c2ccccc2C=Cc2ccccc21` (centres undefined) here?
A: inactive

Q: With `CCOC(=O)N1CCC(Nc2ccc(C)cc2)CC1` as the compound, how does the outcome read?
A: inactive

Q: How did the outcome turn out when `N/C(=N\O)c1c(N)no[n+]1[O-]` was run?
A: inactive

Q: For `COc1ccc(C(=O)NCC2(N3CCOCC3)CCCCC2)cc1OC`, which outcome is on record?
A: inactive

Q: How did the outcome turn out when `CN1CCC(Nc2ccc(Cl)cc2)CC1` was run?
A: inactive

Q: With `CCCOc1ccc(C)cc1CN(CCCl)CCCl` as the compound, how does the outcome read?
A: inactive

Q: For `COc1cc(OC)cc(C(=O)NCC2(N3CCOCC3)CCCCC2)c1`, which outcome is on record?
A: inactive

Q: How did the outcome turn out when `COc1cccc(C(=O)N(c2cc(C)cc(C)c2)C2CCN(C(=O)OC(C)(C)C)CC2)c1` was run?
A: inactive

Q: Which outcome does the source give for `CCC(CO)(C(=O)OC1CN2CCC1CC2)c1ccccc1` (centres undefined) here?
A: inactive

Q: Which outcome does the source give for `CC(C)(C)OC(=O)N1CCC(Nc2ccccc2)CC1` here?
A: inactive

Q: `O=C(O)C1(Nc2ccccc2)CCN(Cc2ccccc2)CC1` was tested. Which outcome did it give?
A: inactive

Q: With `CCCOc1ccc(C(=O)NCC2(N(C)C)CCCCC2)cc1` as the compound, how does the outcome read?
A: inactive

Q: `CCOc1ncccc1C(=O)NCC1(N2CCOCC2)CCCCC1` was tested. Which outcome did it give?
A: inactive

Q: How did the outcome turn out when `CN1CCC(Nc2ccc(F)c(Cl)c2)CC1` was run?
A: inactive

Q: For `CN(C)c1ccc(C(=O)NCC2(N3CCCCC3)CCCCC2)cc1`, which outcome is on record?
A: inactive

Q: `CCN1CCC(Nc2cccc(F)c2)CC1` was tested. Which outcome did it give?
A: inactive

Q: `Cc1ccc(C(=O)NCC2(N3CCCCC3)CCCCC2)o1` was tested. Which outcome did it give?
A: inactive

Q: `Fc1ccccc1NC1CCN(Cc2ccccc2)CC1` was tested. Which outcome did it give?
A: inactive

Q: `COc1cc(OC)cc(C(=O)NCC2(N3CCCCC3)CCCCC2)c1` was tested. Which outcome did it give?
A: inactive
